Source: patent US20130071854A1, “METHODS FOR THE IDENTIFICATION AND CHARACTERIZATION OF HDAC INTERACTING COMPOUNDS” (priority 2009, published 2013)

Molecular target: T1, HDAC10 (Homo sapiens, UniProt Q969S8)
T1 sequence (Q969S8 1-669): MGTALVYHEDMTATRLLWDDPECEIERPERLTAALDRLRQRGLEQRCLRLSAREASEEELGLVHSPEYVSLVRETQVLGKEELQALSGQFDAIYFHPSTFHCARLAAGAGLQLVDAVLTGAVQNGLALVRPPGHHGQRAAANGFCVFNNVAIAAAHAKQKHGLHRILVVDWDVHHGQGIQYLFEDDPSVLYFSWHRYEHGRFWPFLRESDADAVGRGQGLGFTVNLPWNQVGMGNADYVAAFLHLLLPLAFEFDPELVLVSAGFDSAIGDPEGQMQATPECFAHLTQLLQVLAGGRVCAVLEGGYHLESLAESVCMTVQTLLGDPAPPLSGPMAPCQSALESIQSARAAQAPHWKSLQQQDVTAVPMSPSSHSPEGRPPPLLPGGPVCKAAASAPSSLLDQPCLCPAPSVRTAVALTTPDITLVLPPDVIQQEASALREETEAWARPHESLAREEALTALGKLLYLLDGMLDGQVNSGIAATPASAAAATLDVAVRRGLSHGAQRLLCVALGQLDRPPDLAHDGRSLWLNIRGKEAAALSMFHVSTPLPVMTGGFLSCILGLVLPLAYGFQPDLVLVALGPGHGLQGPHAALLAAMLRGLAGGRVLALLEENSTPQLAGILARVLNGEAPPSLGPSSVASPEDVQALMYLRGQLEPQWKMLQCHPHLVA
Test: Competition binding assay in cell lysate, affinity matrix, MS
Set-up: used to probe endogenous HDACs in K562 whole cell extracts; endogenous in cells; host or cells: K-562
Settings: Example 3 or 4, Molt4 and K-562 cell lysates

With `CC(/C=C/C(=O)NO)=C\[C@@H](C)C(=O)c1ccc(N(C)C)cc1` [Trichostatin A] the “inhibition of HDAC10 (in words)” value was “no significant inhibition”.
